Test results reported in patent US20100160314A1, “Small Molecule Inhibitors of Toll-Like Receptor 9” (priority 2006, published 2010).

Amino acid sequences for entries named in this document (tags omitted). Residues count along the entry.
UniProt Q9NYK1, 27-1049 limits assumed: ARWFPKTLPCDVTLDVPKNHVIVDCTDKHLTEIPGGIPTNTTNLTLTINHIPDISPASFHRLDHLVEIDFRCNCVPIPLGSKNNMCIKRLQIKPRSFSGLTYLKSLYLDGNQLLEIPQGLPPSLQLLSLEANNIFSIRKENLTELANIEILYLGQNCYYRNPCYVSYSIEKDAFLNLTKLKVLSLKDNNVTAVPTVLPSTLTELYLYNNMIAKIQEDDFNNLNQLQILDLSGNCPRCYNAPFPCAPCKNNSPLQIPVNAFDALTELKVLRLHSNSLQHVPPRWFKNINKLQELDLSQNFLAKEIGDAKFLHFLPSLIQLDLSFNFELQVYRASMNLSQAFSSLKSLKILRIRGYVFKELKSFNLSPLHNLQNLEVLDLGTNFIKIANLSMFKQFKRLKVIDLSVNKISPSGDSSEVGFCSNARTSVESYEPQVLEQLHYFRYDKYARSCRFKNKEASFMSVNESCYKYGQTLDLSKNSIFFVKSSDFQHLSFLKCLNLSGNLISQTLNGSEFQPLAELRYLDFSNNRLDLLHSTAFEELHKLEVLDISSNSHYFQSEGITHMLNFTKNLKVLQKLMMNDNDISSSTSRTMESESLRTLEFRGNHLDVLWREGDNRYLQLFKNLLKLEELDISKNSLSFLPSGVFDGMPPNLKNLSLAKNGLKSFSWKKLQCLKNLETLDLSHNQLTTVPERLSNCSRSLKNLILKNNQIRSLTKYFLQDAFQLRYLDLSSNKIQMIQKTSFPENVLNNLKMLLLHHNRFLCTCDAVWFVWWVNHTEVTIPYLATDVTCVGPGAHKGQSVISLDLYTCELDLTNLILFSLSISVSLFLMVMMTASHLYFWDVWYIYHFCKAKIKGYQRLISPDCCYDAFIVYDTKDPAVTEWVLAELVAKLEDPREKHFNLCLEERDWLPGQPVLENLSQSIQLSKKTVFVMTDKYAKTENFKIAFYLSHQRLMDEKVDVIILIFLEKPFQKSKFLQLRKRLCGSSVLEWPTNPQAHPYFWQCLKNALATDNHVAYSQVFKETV
UniProt Q9NR96, 26-1032 limits assumed: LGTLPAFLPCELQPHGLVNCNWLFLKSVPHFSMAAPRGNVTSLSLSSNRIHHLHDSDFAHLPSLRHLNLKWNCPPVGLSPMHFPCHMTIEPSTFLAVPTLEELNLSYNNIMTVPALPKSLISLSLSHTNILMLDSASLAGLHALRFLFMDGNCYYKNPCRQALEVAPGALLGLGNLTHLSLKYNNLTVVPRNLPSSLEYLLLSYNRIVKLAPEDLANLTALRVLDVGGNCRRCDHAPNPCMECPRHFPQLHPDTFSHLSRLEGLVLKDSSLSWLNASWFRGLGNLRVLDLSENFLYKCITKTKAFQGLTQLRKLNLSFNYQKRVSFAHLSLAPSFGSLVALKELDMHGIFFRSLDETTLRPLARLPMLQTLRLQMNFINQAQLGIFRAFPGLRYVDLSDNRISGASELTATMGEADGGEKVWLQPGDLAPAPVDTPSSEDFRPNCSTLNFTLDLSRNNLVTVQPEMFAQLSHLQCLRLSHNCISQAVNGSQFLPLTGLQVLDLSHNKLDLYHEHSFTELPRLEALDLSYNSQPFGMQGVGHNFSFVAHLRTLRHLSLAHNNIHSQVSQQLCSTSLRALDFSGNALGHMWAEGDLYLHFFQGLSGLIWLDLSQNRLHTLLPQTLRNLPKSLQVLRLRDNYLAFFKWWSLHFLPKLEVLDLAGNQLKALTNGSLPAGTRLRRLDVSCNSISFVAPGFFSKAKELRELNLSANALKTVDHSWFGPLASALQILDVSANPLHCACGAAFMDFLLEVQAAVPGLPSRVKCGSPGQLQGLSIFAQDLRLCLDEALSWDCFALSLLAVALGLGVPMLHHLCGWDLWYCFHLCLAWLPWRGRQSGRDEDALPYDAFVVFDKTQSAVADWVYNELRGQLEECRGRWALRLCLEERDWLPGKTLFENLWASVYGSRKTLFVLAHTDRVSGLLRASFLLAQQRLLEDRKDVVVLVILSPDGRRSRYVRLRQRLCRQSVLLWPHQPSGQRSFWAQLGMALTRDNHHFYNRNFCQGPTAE
UniProt Q9NR97, 27-1041 limits assumed: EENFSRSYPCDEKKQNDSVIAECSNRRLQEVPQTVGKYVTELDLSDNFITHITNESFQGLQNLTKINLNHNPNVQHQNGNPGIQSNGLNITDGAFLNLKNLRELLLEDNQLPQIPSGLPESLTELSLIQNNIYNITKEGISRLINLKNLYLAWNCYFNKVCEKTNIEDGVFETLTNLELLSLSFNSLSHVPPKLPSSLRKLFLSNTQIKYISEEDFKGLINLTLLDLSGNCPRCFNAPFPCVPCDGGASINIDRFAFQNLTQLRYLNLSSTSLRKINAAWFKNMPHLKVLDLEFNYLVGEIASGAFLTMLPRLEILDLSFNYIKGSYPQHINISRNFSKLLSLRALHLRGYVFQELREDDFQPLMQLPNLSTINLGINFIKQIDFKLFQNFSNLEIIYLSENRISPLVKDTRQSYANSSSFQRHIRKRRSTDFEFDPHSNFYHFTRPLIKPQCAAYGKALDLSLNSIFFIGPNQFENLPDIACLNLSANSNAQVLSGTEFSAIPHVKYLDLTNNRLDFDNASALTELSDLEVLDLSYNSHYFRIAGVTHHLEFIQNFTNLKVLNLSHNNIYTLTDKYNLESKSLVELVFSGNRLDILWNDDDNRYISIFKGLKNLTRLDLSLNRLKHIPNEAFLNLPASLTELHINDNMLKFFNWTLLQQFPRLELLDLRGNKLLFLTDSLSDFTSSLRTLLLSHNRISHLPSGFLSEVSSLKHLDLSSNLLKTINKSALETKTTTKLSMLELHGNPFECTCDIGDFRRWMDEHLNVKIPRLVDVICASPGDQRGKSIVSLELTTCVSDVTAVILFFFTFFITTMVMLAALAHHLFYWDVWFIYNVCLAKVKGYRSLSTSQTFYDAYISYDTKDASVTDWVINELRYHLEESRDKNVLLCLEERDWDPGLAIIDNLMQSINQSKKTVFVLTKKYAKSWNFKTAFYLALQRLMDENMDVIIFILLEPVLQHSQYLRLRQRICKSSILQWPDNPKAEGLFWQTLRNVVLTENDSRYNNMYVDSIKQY

Columns and labels:
[1] = molecular target: TLR7 (Homo sapiens, UniProt Q9NYK1); test: Human PBMC, IFN-α readout using ORN R-1362+DOTAP (TLR7 antagonism); settings: read-out: TLR7 IC50, Experimental; in vitro testing as described in Example 63
Description: (§1) Peripheral blood mononuclear cell (PBMC) buffy coat preparations from healthy male and female human donors were obtained from the Institute for Hemostaseology and Transfusion Medicine of the University of Düsseldorf (Germany).
(§2) PBMC were purified by centrifugation over Ficoll-Hypaque (Sigma). Purified PBMC were washed twice with 1×PBS and resuspended in RPMI 1640 culture medium supplemented with 5% (v/v) heat-inactivated human AB serum (BioWhittaker, Belgium) or 10% (v/v) heat-inactivated fetal calf serum (FCS), 1.5 mM L-glutamine, 100 U/ml penicillin and […] streptomycin (all from Sigma, Deisenhofen, Germany).
(§3) Freshly isolated PBMC were resuspended at a concentration of 3×10^6/ml to 5×10^6/ml with RPMI 1640 culture medium and added to 96-well round-bottomed plates (150 μl/well) which had previously received nothing or selected concentrations (typically 10 μM-0.085 nM as 7-fold serial dilutions) of small molecule. To assay antagonist reaction for TLR9, 1 μM CpG oligodeoxynucleotide (ODN) 2395 ([…]; SEQ ID NO:3) was added to wells containing small molecules. To assay antagonist reaction for TLR7 and TLR8, 0.5 μM oligoribonucleotide (ORN) R-1362 ([…]; SEQ ID NO:4) complexed to 5 μg/ml DOTAP was added to wells containing small molecules. To calculate response to CpG ODN 2395 alone or ORN R-1362+DOTAP alone, wells without small molecules were stimulated with CpG ODN 2395 or ORN R-1362+DOTAP.
(§4) Cells were cultured in a humidified incubator at 37° C. for 16 h. Culture supernatants were then collected and, if not used immediately, frozen at −20° C. until required.
(§5) Amounts of cytokines in the supernatants were assessed using enzyme-linked immunosorbent assays (ELISA) specific for IFN-α or TNF-α using commercially available antibodies or kits from BD Pharmingen or Diaclone, respectively. IFN-α readout using CpG 2395 was used to measure TLR9 response. IFN-α readout using ORN R-1362+DOTAP was used to measure TLR7 response. TNF-α release using R-1362 complexed to DOTAP was used to measure TLR8-mediated immune response.

[2] = molecular target: TLR9 (Homo sapiens, UniProt Q9NR96); test: Human PBMC, IFN-α readout using CpG ODN 2395 (TLR9 antagonism); settings: read-out: TLR9 IC50, Experimental; in vitro testing as described in Example 63
Description: as §1, §2, §3, §4, §5

[3] = molecular target: TLR8 (Homo sapiens, UniProt Q9NR97); test: Human PBMC, TNF-α release using ORN R-1362+DOTAP (TLR8 antagonism); settings: read-out: TLR8 IC50, Experimental; in vitro testing as described in Example 63
Description: as §1, §2
Freshly isolated PBMC were resuspended at a concentration of 3×10^6/ml to 5×10^6/ml with RPMI 1640 culture medium and added to 96-well round-bottomed plates (150 μl/well) which had previously received nothing or selected concentrations (typically 10 μM-0.085 nM as 7-fold serial dilutions) of small molecule. […]
as §5, with “TNF-α release using R-1362 complexed to DOTAP was used to measure TLR8-mediated immune response.” left out

Structure (SMILES) | IC50 [1] [nM] | IC50 [2] [nM] | IC50 [3] [nM]
CN1CCN(c2nc(NCCN3CCOCC3)c3cc(-c4ccccc4)ccc3n2)CC1 | 630 | 100 | 500
CN1CCN(c2nc(-c3ccccc3)nc3ccc(NCCN4CCOCC4)cc23)CC1 | 170 | 53 | –
CN1CCN(c2ccc3c(NCCN4CCOCC4)nc(-c4ccccc4)nc3c2)CC1 | 24 | 38 | 29
